Test results taken from US8017630B2 (priority 2004, dated 2011).

Sequences of proteins named here, by UniProt entry; tags and fusion partners are left off. A change or cut given only in a name is not applied to a line headed by its entry.
UniProt P35372, whole entry, looked up: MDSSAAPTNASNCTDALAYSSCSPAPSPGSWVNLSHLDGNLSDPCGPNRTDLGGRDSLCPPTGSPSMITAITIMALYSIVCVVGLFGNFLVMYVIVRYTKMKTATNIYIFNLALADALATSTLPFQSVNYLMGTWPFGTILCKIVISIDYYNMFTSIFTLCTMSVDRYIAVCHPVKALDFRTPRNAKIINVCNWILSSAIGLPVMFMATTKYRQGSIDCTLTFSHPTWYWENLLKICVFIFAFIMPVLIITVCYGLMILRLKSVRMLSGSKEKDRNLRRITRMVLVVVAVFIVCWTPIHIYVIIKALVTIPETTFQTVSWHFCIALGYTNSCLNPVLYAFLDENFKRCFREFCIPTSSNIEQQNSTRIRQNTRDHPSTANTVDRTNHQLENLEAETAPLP
UniProt P41146: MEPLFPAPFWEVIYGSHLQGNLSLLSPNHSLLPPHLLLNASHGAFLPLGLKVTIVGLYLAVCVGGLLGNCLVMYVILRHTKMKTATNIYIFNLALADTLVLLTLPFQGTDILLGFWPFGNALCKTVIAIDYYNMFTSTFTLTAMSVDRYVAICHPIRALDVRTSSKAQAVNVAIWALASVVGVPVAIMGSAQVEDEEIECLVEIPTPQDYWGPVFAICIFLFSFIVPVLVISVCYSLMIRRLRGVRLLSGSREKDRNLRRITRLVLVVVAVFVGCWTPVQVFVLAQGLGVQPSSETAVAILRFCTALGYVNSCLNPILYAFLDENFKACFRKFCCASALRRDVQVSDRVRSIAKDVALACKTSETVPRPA

Assays:
[1] = biological target: human μ-opiate receptor (Homo sapiens, UniProt P35372); assay: μ-opiate receptor binding assay with [3H]-naloxone; conditions: for Ki: read-out: ORμNal Ki, Ki from IC50 by Cheng-Prusoff, [3H]-naloxone, CHO-K1 membranes; for ORμNal % 1 μm: % inhibition of specific [3H]-naloxone binding at 1 μmol/l
[2] = tested on: mice; assay: Tail flick test in mice (analgesia); conditions: % of maximum possible antinociceptive effect; for TFMiv % [1 mg/kg]: 1 mg/kg intravenous; for TFMiv % (10 mg/kg): 10 mg/kg intravenous
[3] = biological target: ORL1 receptor (Homo sapiens, UniProt P41146); assay: ORL1 receptor binding assay with 3H-nociceptin/orphanin FQ; conditions: % inhibition at c=1 μM; membranes from recombinant CHO-ORL1 cells
[4] = tested on: 5HT uptake; assay: Serotonin reuptake in rat brain synaptosomes; type: biochemical; conditions: synaptosomes from medulla+pons of male rat brains
[5] = tested on: NA uptake; assay: Noradrenaline reuptake in rat brain synaptosomes; type: biochemical; conditions: synaptosomes from hypothalamus of male rat brains

Compound	Ki [1]	ORμNal % 1 μm [1]	ORL1% 1 μM [3]	also measured
COC(=O)[C@H](Cc1c[nH]c2ccccc12)NC(=O)CC1CCC(c2ccccc2)(N(C)C)CC1 (stereo partly shown)	2.8 nM	–	–	–
CN(C)C1(c2ccc(F)cc2)CCC(CC(=O)NCCc2c[nH]c3ccccc23)CC1 (stereo not shown)	1.2 nM	–	–	–
CN(C)C1(c2ccccc2)CCC(=CC(=O)NCc2ccccc2)CC1.Cl (stereo not shown)	–	103.00%	85.00%	TFMiv % [1 mg/kg] [2]: 93%
CN(C)C1(c2ccccc2)CCC(CC(=O)NCCc2c[nH]c3ccccc23)CC1.Cl (stereo not shown)	–	–	–	5HT uptake % (10) [4]: 85%; NA uptake % (10) [5]: 78.5%
CN(C)C1(c2ccccc2)CCC(=CC(=O)NCCCc2c[nH]c3ccccc23)CC1.Cl (stereo not shown)	–	98%	88%	5HT uptake % (10) [4]: 91%; NA uptake % (10) [5]: 95%
CN(C)C1(c2ccccc2)CCC(CC(=O)NCc2c[nH]c3ccccc23)CC1 (stereo not shown)	8.6 nM	–	–	–
CN(C)C1(c2ccccc2)CCC(=CC(=O)NCc2ccccc2)CC1 (stereo not shown)	1.1 nM	–	–	–
CN(C)C1(c2ccccc2)CCC(=CC(=O)NCCCCCc2c[nH]c3ccccc23)CC1 (stereo not shown)	8 nM	–	–	–
2-(Dimethylamino-4-phenylcyclohexylidene)-N-[2-(1H-indol-3-yl)ethyl]acetamide hydrochloride	0.5 nM	100.5%	98.00%	–
CN(C)C1(c2ccccc2)CCC(=CC(=O)NCCCc2ccccc2)CC1 (stereo not shown)	3.1 nM	–	–	–
CN(C)C1(c2ccccc2)CCC(=CC(=O)NCc2c[nH]c3ccccc23)CC1 (stereo not shown)	8.9 nM	–	–	–
CN(C)C1(c2ccccc2)CCC(=CC(=O)NCCCCCc2c[nH]c3ccccc23)CC1.Cl (stereo not shown)	–	100%	94%	–
CN(C)C1(c2cccc(F)c2)CCC(=CC(=O)NCCCc2ccccc2)CC1.Cl (stereo not shown)	–	102%	96%	–
CN(C)C1(c2ccccc2)CCC(=CC(=O)Nc2ccc(F)cc2)CC1.Cl (stereo not shown)	–	–	37.00%	TFMiv % (10 mg/kg) [2]: 100 (10 mg/kg) %
CN(C)C1(c2ccccc2)CCC(CC(=O)NCCc2ccccc2)CC1 (stereo not shown)	2.6 nM	–	–	–
CN(C)C1(c2ccccc2)CCC(CC(=O)NCCc2ccccc2)CC1.Cl (stereo not shown)	–	97%	91.00%	TFMiv % (10 mg/kg) [2]: 93 (10 mg/kg) %
CN(C)C1(c2ccccc2)CCC(CC(=O)NCCCCc2c[nH]c3ccccc23)CC1 (stereo not shown)	1.3 nM	–	–	–
CN(C)C1(c2ccccc2)CCC(=CC(=O)NCCCc2c[nH]c3ccccc23)CC1 (stereo not shown)	4.1 nM	–	–	–
CN(C)C1(c2ccccc2)CCC(=CC(=O)NCCc2ccc(F)cc2)CC1.Cl (stereo not shown)	–	105.00%	93.00%	–
CN(C)C1(c2ccccc2)CCC(=CC(=O)NCCc2ccccc2)CC1.Cl (stereo not shown)	–	100.00%	84.00%	–
CN(C)C1(c2ccccc2)CCC(CC(=O)N[C@@H](Cc2c[nH]c3ccccc23)C(=O)O)CC1 (stereo partly shown)	17 nM	95%	72.00%	–
CN(C)C1(c2ccccn2)CCC(=CC(=O)NCCCc2ccccc2)CC1 (stereo not shown)	9.1 nM	–	–	–
COC(=O)[C@H](Cc1c[nH]c2ccccc12)NC(=O)C=C1CCC(c2ccccc2)(N(C)C)CC1 (stereo partly shown)	1.4 nM	101.00%	94.00%	–

Compound	Ki [1]	ORμNal % 1 μm [1]	ORL1% 1 μM [3]	also measured
CN(C)C1(c2ccc(F)cc2)CCC(=CC(=O)NCCCc2ccccc2)CC1 (stereo not shown)	7.5 nM	–	–	–
CN(C)C1(c2ccccc2)CCC(CC(=O)NCCCc2ccccc2)CC1 (stereo not shown)	2.4 nM	96%	97.00%	–
CN(C)C1(c2ccccc2)CCC(CC(=O)NCc2ccccc2C(F)(F)F)CC1 (stereo not shown)	5.9 nM	91.5%	63.00%	–
CC(Cc1c[nH]c2ccccc12)NC(=O)C=C1CCC(c2ccccc2)(N(C)C)CC1 (stereo not shown)	–	–	–	5HT uptake % (10) [4]: 92%; NA uptake % (10) [5]: 101%
CN(C)C1(c2ccccc2)CCC(CC(=O)NCc2c[nH]c3ccccc23)CC1.Cl (stereo not shown)	–	93.5%	66.00%	–
COC(=O)C(Cc1c[nH]c2ccccc12)NC(=O)C=C1CCC(c2ccccc2)(N(C)C)CC1.Cl (stereo not shown)	–	100.5%	97.00%	TFMiv % [1 mg/kg] [2]: 62%
CN(C)C1(c2ccccc2)CCC(=CC(=O)NCCCCc2ccccc2)CC1.Cl (stereo not shown)	–	96.00%	93.00%	TFMiv % [1 mg/kg] [2]: 74%
CN(C)C1(c2ccccc2)CCC(=CC(=O)NCc2c[nH]c3ccccc23)CC1.Cl (stereo not shown)	–	96.5%	85%	–
CN(C)C1(c2ccccc2)CCC(=CC(=O)NCCCc2ccccc2)CC1.Cl (stereo not shown)	–	101.00%	90.00%	–
CN(C)C1(c2ccccc2)CCC(CC(=O)NCCCCc2c[nH]c3ccccc23)CC1.Cl (stereo not shown)	–	99%	99.00%	–
CN(C)C1(c2ccccc2)CCC(CC(=O)NCCCCc2ccccc2)CC1.Cl (stereo not shown)	–	–	–	5HT uptake % (10) [4]: 81%; NA uptake % (10) [5]: 86%
CN(C)C1(c2ccccc2)CCC(CC(=O)NCCCCCCc2c[nH]c3ccccc23)CC1 (stereo not shown)	9.8 nM	–	–	–
CN(C)C1(c2ccccc2)CCC(CC(=O)NCCCCCc2c[nH]c3ccccc23)CC1 (stereo not shown)	1.8 nM	–	–	–
CN(C)C1(c2ccccc2)CCC(=CC(=O)NCCc2ccccc2)CC1 (stereo not shown)	8.2 nM	–	–	–
CN(C)C1(c2ccc(F)cc2)CCC(CC(=O)NCCc2c[nH]c3ccccc23)CC1.Cl (stereo not shown)	–	106%	89.00%	–
CN(C)C1(c2cccc(F)c2)CCC(=CC(=O)NCCc2c[nH]c3ccccc23)CC1 (stereo not shown)	1.6 nM	–	–	–
CC(Cc1c[nH]c2ccccc12)NC(=O)C=C1CCC(c2ccccc2)(N(C)C)CC1.Cl (single isomer, unassigned)	–	97.5%	98.5%	TFMiv % [1 mg/kg] [2]: 69%
COC(=O)[C@H](Cc1c[nH]c2ccccc12)NC(=O)CC1CCC(c2ccccc2)(N(C)C)CC1.Cl (stereo partly shown)	–	97%	94%	TFMiv % (10 mg/kg) [2]: 89 (10 mg/kg) %
CN(C)C1(c2ccccc2)CCC(=CC(=O)NCCCCc2ccccc2)CC1 (stereo not shown)	1.4 nM	–	–	–
CN(C)C1(c2ccccc2)CCC(=CC(=O)NCc2ccccc2C(F)(F)F)CC1 (stereo not shown)	2.8 nM	104.00%	84.00%	TFMiv % [1 mg/kg] [2]: 99%
CN(C)C1(c2ccccc2)CCC(=CC(=O)NCCc2ccc(F)cc2)CC1 (stereo not shown)	5.7 nM	–	–	–
CN(C)C1(c2ccccc2)CCC(CC(=O)NCCCCCc2c[nH]c3ccccc23)CC1.Cl (stereo not shown)	–	104%	98.00%	–
CC(Cc1c[nH]c2ccccc12)NC(=O)CC1CCC(c2cccc(F)c2)(N(C)C)CC1.Cl (stereo not shown)	–	99%	99.00%	–

Compound	Ki [1]	ORμNal % 1 μm [1]	ORL1% 1 μM [3]	also measured
CN(C)C1(c2cccc(F)c2)CCC(=CC(=O)NCCc2c[nH]c3ccccc23)CC1.Cl (stereo not shown)	–	97%	98%	TFMiv % [1 mg/kg] [2]: 42%
CN(C)C1(c2ccccc2)CCC(=CC(=O)NCCCCc2c[nH]c3ccccc23)CC1.Cl (stereo not shown)	–	101%	92%	–
CN(C)C1(c2ccc(F)cc2)CCC(=CC(=O)NCCCc2ccccc2)CC1.Cl (stereo not shown)	–	93%	49%	–
CN(C)C1(c2ccccc2)CCC(=CC(=O)NCCCCCCc2c[nH]c3ccccc23)CC1 (stereo not shown)	37 nM	–	–	–
CC(Cc1c[nH]c2ccccc12)NC(=O)CC1CCC(c2cccc(F)c2)(N(C)C)CC1 (stereo not shown)	1.3 nM	–	–	–
CC(Cc1c[nH]c2ccccc12)NC(=O)CC1CCC(c2ccccc2)(N(C)C)CC1.Cl (stereo not shown)	–	–	–	5HT uptake % (10) [4]: 83%; NA uptake % (10) [5]: 55%
CN(C)C1(c2ccc(F)cc2)CCC(=CC(=O)NCCc2c[nH]c3ccccc23)CC1.Cl (stereo not shown)	–	81%	81%	–
CN(C)C1(c2ccccc2)CCC(CC(=O)NCCCc2c[nH]c3ccccc23)CC1.Cl (stereo not shown)	–	97%	88.00%	–
CN(C)C1(c2ccccc2)CCC(=CC(=O)NCc2ccc(F)cc2)CC1.Cl (stereo not shown)	–	99.00%	88.00%	TFMiv % [1 mg/kg] [2]: 81%
CN(C)C1(c2ccccc2)CCC(=CC(=O)NCc2ccc(F)cc2)CC1 (stereo not shown)	4.3 nM	–	–	–
CC(Cc1c[nH]c2ccccc12)NC(=O)C=C1CCC(c2ccccc2)(N(C)C)CC1 (single isomer, unassigned)	1.4 nM	–	–	–
CN(C)C1(c2ccc(F)cc2)CCC(=CC(=O)NCCc2c[nH]c3ccccc23)CC1 (stereo not shown)	5.2 nM	–	–	–
CN(C)C1(c2ccccc2)CCC(CC(=O)NCCCCCCc2c[nH]c3ccccc23)CC1.Cl (stereo not shown)	–	104%	91.00%	–
CN(C)C1(c2ccccn2)CCC(=CC(=O)NCCCc2ccccc2)CC1.Cl (stereo not shown)	–	83%	46%	–
CN(C)C1(c2ccccc2)CCC(=CC(=O)Nc2ccc(F)cc2)CC1 (stereo not shown)	21 nM	–	–	–
CN(C)C1(c2ccccc2)CCC(=CC(=O)NCCCCCCc2c[nH]c3ccccc23)CC1.Cl (stereo not shown)	–	102%	90%	–
CN(C)C1(c2cccc(F)c2)CCC(=CC(=O)NCCCc2ccccc2)CC1 (stereo not shown)	1.2 nM	–	–	–
COC(=O)C(Cc1c[nH]c2ccccc12)NC(=O)C=C1CCC(c2ccccc2)(N(C)C)CC1 (stereo not shown)	1.2 nM	–	–	–
CN(C)C1(c2ccccn2)CCC(=CC(=O)NCCc2c[nH]c3ccccc23)CC1.Cl (stereo not shown)	–	106%	92%	–
CN(C)C1(c2ccccc2)CCC(CC(=O)NCCCc2c[nH]c3ccccc23)CC1 (stereo not shown)	5.7 nM	–	–	–
CN(C)C1(c2ccccn2)CCC(=CC(=O)NCCc2c[nH]c3ccccc23)CC1 (stereo not shown)	2.7 nM	–	–	–
CN(C)C1(c2ccccc2)CCC(=CC(=O)NCCCCc2c[nH]c3ccccc23)CC1 (stereo not shown)	5.2 nM	–	–	–
